One test has as its target apelin receptor NxStaR (Homo sapiens, UniProt P35414, F214L/I224A/N112A/S298A/T207M/T87V). As to the kind of experiment: SPR, pH dependence (Biacore 8K+), NxStaR. The conditions noted are these: 5% DMSO, 10 °C, single determination. A general note: Surface plasmon resonance follows binding to a sensor surface in real time, without labels.
In test [1] the target is R/H168^4.64 variant NxStaR (Homo sapiens, UniProt P35414, F214L/I224A/N112A/R168H/S298A/T207M/T87V). As to the kind of experiment: SPR, pH dependence (Biacore 8K+), R/H168^4.64 NxStaR. The settings on record: 5% DMSO, 10 °C, single determination.

Chains of the proteins cited; added tags and fusions are not shown.
UniProt P35414, whole entry T87V/N112A/T207M/F214L/I224A/S298A: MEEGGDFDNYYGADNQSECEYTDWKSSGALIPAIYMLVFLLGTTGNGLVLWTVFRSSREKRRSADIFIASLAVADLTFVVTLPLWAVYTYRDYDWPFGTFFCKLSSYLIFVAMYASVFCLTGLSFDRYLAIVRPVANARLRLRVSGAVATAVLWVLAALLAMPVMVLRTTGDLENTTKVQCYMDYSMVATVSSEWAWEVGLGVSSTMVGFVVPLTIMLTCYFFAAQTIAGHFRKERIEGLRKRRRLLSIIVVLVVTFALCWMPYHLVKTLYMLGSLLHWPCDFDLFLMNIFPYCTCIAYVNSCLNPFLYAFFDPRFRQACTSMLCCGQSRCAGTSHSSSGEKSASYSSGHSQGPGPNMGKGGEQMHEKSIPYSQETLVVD
UniProt P35414, whole entry T87V/N112A/R168H/T207M/F214L/I224A/S298A: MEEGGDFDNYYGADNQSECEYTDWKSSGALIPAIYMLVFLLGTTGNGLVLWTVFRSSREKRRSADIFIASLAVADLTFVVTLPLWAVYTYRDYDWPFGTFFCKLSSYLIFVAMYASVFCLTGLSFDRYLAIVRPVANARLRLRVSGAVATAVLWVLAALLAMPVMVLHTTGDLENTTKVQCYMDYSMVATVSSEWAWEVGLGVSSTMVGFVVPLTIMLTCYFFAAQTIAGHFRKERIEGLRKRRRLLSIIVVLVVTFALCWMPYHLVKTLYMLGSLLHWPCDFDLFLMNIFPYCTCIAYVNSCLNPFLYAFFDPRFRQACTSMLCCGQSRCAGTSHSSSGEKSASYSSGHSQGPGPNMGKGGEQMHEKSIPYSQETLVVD

What is called Kd is the concentration at which binding is half-saturated. The low end stands for tighter binding, the high end for weaker binding. Take `CCC(CC)n1c(Cc2cccs2)nc2cc(C(=O)N[C@H](Cc3nn[nH]n3)CC(C)C)ccc21`: the Kd on apelin receptor NxStaR (pH 6.0 (MES), 0.02% DDM) is 0.7 nM; at apelin receptor NxStaR (pH 7.5, 0.02% DDM) it was 1.9 nM; in test [1] (pH 6.0 (MES), 0.02% DDM), 3.8 nM; in test [1] (pH 7.5, 0.02% DDM) it was 38.1 nM.

Source of the values: paper PMC11680790.
